Source: patent US20260034119A1, “5-METHOXY-N,N-[…][…], THEIR […], AND METHODS FOR TREATMENT OF NEUROLOGICAL, […], AND SUBSTANCE USE DISORDERS” (priority 2023, published 2026)

Amino acid sequences for entries named in this document (tags omitted).
UniProt P08908, whole entry: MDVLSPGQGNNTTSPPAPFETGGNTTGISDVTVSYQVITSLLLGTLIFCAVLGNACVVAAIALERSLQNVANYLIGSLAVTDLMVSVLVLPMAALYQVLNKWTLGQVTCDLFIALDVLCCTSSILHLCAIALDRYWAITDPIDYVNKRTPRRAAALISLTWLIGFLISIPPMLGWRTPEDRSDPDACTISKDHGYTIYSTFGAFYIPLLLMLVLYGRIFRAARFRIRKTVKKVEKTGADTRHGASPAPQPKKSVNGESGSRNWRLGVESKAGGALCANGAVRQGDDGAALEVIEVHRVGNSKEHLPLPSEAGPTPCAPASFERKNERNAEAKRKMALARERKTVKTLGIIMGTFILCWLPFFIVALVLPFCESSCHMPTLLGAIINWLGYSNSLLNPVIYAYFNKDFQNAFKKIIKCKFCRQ

Target: 5-HT1A (Homo sapiens, UniProt P08908)
Assay: 5-HT1A-mediated cAMP reduction assay (GloSensor, HEK293-T)
Conditions: Table 6, commercial ligands

`CCCN(CCC)C1CCc2cccc(O)c2C1` (stereo not shown) [Compound 8-OH-DPAT, 8-OH-DPAT, reference compound] was tested. Which “Efficacy as %5HT 5-HT1A cAMP” value did it give?
The value was 108.5 %5HT.
